The entries are a selection whose mix differs from that of the whole data set. Some results for these compounds are left out of this collection, so the calls shown say nothing about other tests. Records with an inconclusive call do not appear. Active and inactive are the calls of the source. Calls come from the whole dose curve; as a rule, active = well fitted cell-killing curve with a large enough effect; inconclusive = small, poorly fitted or top-dose-only effect; inactive = no such curve, though single readings can be large or run the other way.

This test can be described thus: qHTS Screen for Compounds that Selectively Target Cancer Cells with p53 Mutations: Cytotoxicity of p53 Null Cells at the Permissive Temperature.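 Note: 0% = DMSO only and -100% = full killing by 100 µM tamoxifen; nearly all actives have a fitted effect of over 55% in size.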 The settings on record: H1299-neo p53 null cells, ATP luminescence, 24 h, 32C; at 46.1 µM (top of the series). The text has this:
NIH Chemical Genomics Center [NCGC] NIH Molecular Libraries Screening Centers Network [MLSCN] MLSCN Grant: 1 X01 MH079844-01 Assay Submitter (PI): Dr. SUN, YI, University of Michigan NCGC Assay Overview: Synthetic Lethal Screen for Compounds to Kill Cancer Cells with p53 Mutation. Tumor suppressor gene p53 serves as a major cellular barrier against tumorigenesis. […] The goal of this screening is to identify small molecule probes that selectively kill cancer cells with mutations in p53. This screening was carried out using two lines of H1299 lung cancer cells. The H1299-p53 A138V line express a temperature sensitive p53 mutant (p53ts) in which the mutant p53 protein (A138V) is in the mutant confirmation when grown at 39C (the nonpermissive temperature) and in the wild type conformation when grown at 32C (the permissive temperature). A H1299-neo line (p53 null) grown at both 39C and 32C were used as counter-screens to filter out false positive associated with temperature shifting. The small molecular compounds that selectively target mutant p53-containing cancer cells were selected as candidate probes for further study. A cytotoxicity assay based on the measurement of ATP contents in cells was used in this screen. Concentration-responses of all the compounds in the library collection were determined in qHTS using the cell lines and temperature conditions as above.
NCGC Assay Protocol Summary: Both the H1299-p53A138V and H1299-neo cell lines were provided by Dr.Yi Sun, a PI at the University Michigan. The cells were maintained and cultured at 37C. The resuspended frozen cells were used to plate the cells in the 1536-well assay plates at a density of 600 cells per well in 5 ul medium. The assay plates with the cells were incubated at 37C for 16 to 30 hours before the experiments. The library compounds in DMSO solution were added to the cells in assay plates and incubated 24 hours at 39C (for mutant p53 conformation) or 32C (for normal p53 conformation as control). An ATP_lite assay kit (PerkinElmer) was used to determine the cell viability. Tomaxifen (100uM) was used as the positive control for cell killing. Data were normalized to the controls for basal activity (DMSO only) and 100% killing (100uM tamoxifen). AC50 values were determined from concentration-response data modeled with the standard Hill equation. P53 assay protocol: 1. Reagent; 5 uL H1299-p53A138V or H1299-neo cell cells/well 2. Time; overnight; 37C incubation 3. Compounds; 23 nL; 5.9 nM to 46 uM 4. Controls; 23 nL; Tamoxifen 100 uM 5. Time; 24 hr; 32C incubation 6. Reagent; 3 uL; ATP_Lite reagent 7. Time; 20 min; Room Temperature 8. Detection; Luminescence; Viewlux plate reader Keywords: p53, synthetic lethal, cancer, cell viability, cytotoxicity, H1299 cell line, luminescence, MLSMR, MLSCN, NIH Roadmap, qHTS, NCGC
In the case of `CC(C)Oc1ccc(C(=O)NCC2(N(C)C)CCCCC2)cc1`, the activity change, negative = cytotoxicity was inactive: 6.43%. Regarding `COc1cc(C(=O)NCC2(N(C)C)CCCCC2)cc(OC)c1OC`, the activity change, negative = cytotoxicity is inactive: -1.41%. As for `Cc1cccc(C(=O)NCC2(N(C)C)CCCCC2)c1`, the figure is inactive: -5%; as for `CC(C)COc1ccc(C(=O)NCC2(N(C)C)CCCCC2)cc1`, inactive: 0.296%. As for `COc1cccc(C(=O)NCC2(N3CCOCC3)CCCCC2)c1`, the figure is inactive: 4.39%; as for `COc1ccc(C(=O)NCC2(N(C)C)CCCCC2)cc1Cl`, inactive: -1.34%. Take `CCOc1cccc(C(=O)NCC2(N(C)C)CCCCC2)c1`: the activity change, negative = cytotoxicity is inactive: 0.759%. The value for `CCCCOc1ccccc1C(=O)NCC1(N(C)C)CCCCC1` was inactive: -1.62%; that for `CN(C)C1CCCC1OC(=O)C(O)(c1ccccc1)c1ccccc1` (configuration not stated) was inactive: -4.11%.

On to `CN(C)C1(CNC(=O)c2ccccc2[N+](=O)[O-])CCCCC1`, for which the activity change, negative = cytotoxicity is inactive: 3.29%. The value for `CN(C)C1(CNC(=O)c2ccccc2F)CCCCC1` was inactive: -3.93%; that for `CN(C)C1(CNC(=O)c2cccc(Cl)c2)CCCCC1` was inactive: 0.394%.

The values are drawn from PubChem BioAssay AID903 (National Center for Advancing Translational Sciences (NCATS), 2007).
